Read-outs that look alike come from different tables or passages of the source.
Columns and labels:
paraoxon-hAChE = paraoxon-hAChE (Homo sapiens, UniProt P22303); assay: biochemical
Recombinant hAChE = Recombinant hAChE (Homo sapiens, UniProt P22303); assay type: biochemical

Amino acid sequences for entries named in this document (tags omitted). Residues count along the entry.
UniProt P22303, 32-574: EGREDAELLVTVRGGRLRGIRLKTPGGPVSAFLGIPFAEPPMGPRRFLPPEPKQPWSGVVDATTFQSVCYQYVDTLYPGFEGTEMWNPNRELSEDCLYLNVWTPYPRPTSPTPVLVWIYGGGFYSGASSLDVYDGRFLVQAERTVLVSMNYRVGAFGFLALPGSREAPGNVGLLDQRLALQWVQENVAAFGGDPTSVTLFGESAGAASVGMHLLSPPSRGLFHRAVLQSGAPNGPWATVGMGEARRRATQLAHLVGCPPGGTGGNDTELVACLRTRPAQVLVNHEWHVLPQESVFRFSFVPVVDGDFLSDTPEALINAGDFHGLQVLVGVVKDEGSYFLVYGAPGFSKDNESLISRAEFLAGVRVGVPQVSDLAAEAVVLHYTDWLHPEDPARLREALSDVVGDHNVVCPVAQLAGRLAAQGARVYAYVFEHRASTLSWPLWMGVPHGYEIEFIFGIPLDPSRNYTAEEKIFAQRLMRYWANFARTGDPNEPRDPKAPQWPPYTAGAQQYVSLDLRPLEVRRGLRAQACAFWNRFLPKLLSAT
UniProt P22303, 32-614: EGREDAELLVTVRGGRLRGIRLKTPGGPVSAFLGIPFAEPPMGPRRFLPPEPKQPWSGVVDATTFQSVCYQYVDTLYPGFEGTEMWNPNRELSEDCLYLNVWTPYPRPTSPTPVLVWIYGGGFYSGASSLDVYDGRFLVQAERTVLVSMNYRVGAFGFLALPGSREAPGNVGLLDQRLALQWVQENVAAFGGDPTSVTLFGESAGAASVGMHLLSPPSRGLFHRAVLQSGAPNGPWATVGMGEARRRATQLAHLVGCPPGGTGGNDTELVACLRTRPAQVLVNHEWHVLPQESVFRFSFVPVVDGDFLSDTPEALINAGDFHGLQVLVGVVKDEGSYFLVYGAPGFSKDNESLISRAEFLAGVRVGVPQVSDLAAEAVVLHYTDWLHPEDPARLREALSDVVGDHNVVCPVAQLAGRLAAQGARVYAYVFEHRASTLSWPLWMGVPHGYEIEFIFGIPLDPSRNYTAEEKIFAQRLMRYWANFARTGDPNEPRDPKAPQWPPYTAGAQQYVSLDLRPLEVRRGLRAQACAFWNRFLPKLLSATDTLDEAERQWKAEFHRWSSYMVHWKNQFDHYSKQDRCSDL

Row | Structure (SMILES) | Kd (paraoxon-hAChE) | Kd (paraoxon-hAChE; read-out: KD) | IC50 (Recombinant hAChE)
1 | ON=Cc1nc(CCCCNc2c3c(nc4ccccc24)CCCC3)ccc1O [Compound 12, 2-[1-(hydroxyimino)methyl]-6-{4-[(1,2,3,4-tetrahydroacridin-9-yl)amino]butyl}pyridin-3-ol] | 3600 ± 200 nM |  | 
2 | O/N=C/c1nc(CCCCCNc2c3c(nc4ccccc24)CCCC3)ccc1O [Compound 11, 2-[(1E)-(hydroxyimino)methyl]-6-{5-[(1,2,3,4-tetrahydroacridin-9-yl)amino]pentyl}pyridin-3-ol] |  | 1100 ± 100 nM | 260 ± 10 nM

Source: patent publication US20160272620A1 (priority 2013, published 2016)
